System: red blood cells

`O=C(O)CCCc1ccc(N(CCCl)CCCl)cc1` [Chlorambucil, chlorambucil] was tested, and the “potassium leakage of red cells” value was “did not alter potassium leakage”.

From patent US6177441A, “Treating red blood cell solutions with anti-viral agents” (Cerus Corporation, priority 1998, dated 2001)
